In US20090099157A1, “TETRAHYDRO-PYRAZOLO-PYRIDINE THIOETHER MODULATORS OF CATHEPSIN S” (priority 2007, published 2009) one finds IC50 data, which are given here for 22 compounds.

Sequences of proteins named here, by UniProt entry; tags and fusion partners are left off. Residues count along the entry.
UniProt P25774, 115-331: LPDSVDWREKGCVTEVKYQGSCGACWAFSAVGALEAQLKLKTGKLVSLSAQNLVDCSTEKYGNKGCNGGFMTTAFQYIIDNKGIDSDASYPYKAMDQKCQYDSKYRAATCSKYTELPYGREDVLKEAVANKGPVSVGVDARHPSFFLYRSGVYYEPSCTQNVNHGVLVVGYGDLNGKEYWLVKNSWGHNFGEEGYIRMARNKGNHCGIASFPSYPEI

Usually pIC50 stands for −log10 of the IC50, conventionally taken in molar units.

pIC50: −log10 of the molar value.

For this assay, the target named is Recombinant human cathepsin S (CatS) (Homo sapiens, UniProt P25774). Briefly: biochemical.

Consider `N#Cc1ccccc1N1CCN(CC(O)Cn2nc(-c3ccc(C(F)(F)F)c(SCCN4CCCCC4)c3)c3c2CCN(C(=O)CO)C3)CC1` (stereo not shown) [Example 676, 2-(4-{2-Hydroxy-3-[5-(hydroxyacetyl)-3-{3-[(2-piperidin-1-ylethyl)sulfanyl]-4-(trifluoromethyl)phenyl}-4,5,6,7-tetrahydro-1H-pyrazolo[4,3-c]pyridin-1-yl]propyl}piperazin-1-yl)benzonitrile], for which the negative-log IC50 (pIC50) was 7.70.
In the case of `CS(=O)(=O)NC1CCN(CC(O)Cn2nc(-c3ccc(C(F)(F)F)c(SCCN4CCOCC4)c3)c3c2CCN(S(C)(=O)=O)C3)CC1` (stereo not shown) [Example 731, N-(1-{2-Hydroxy-3-[5-(methylsulfonyl)-3-{3-[(2-morpholin-4-ylethyl)sulfanyl]-4-(trifluoromethyl)phenyl}-4,5,6,7-tetrahydro-1H-pyrazolo[4,3-c]pyridin-1-yl]propyl}piperidin-4-yl)methanesulfonamide], the negative-log IC50 (pIC50) was 6.38.
With `CC(=O)N1CCN(CCSc2cc(-c3nn(CC(O)CN4CCC(N5CCOCC5)CC4)c4c3CN(S(C)(=O)=O)CC4)ccc2C(F)(F)F)CC1` (stereo not shown) [Example 849, 1-{3-[3-{[2-(4-Acetylpiperazin-1-yl)ethyl]sulfanyl}-4-(trifluoromethyl)phenyl]-5-(methylsulfonyl)-4,5,6,7-tetrahydro-1H-pyrazolo[4,3-c]pyridin-1-yl}-3-(4-morpholin-4-ylpiperidin-1-yl)propan-2-ol], the pIC50 was 6.21.
With `CC(=O)c1ccc(N2CCN(CC(O)Cn3nc(-c4ccc(C(F)(F)F)c(SCCN5CCCCC5)c4)c4c3CCNC4)CC2)cc1` (stereo not shown) [Example 534, 1-(4-{4-[2-Hydroxy-3-(3-{3-[(2-piperidin-1-ylethyl)sulfanyl]-4-(trifluoromethyl)phenyl}-4,5,6,7-tetrahydro-1H-pyrazolo[4,3-c]pyridin-1-yl)propyl]piperazin-1-yl}phenyl)ethanone] the figure was 5.97; with `CS(=O)(=O)N1CCc2c(c(-c3ccc(C(F)(F)F)c(SCCN4CCCC(CO)C4)c3)nn2CC(O)CN2CCC(N3CCOCC3)CC2)C1` (stereo not shown) [Example 819, 1-{3-[3-({2-[3-(Hydroxymethyl)piperidin-1-yl]ethyl}sulfanyl)-4-(trifluoromethyl)phenyl]-5-(methylsulfonyl)-4,5,6,7-tetrahydro-1H-pyrazolo[4,3-c]pyridin-1-yl}-3-(4-morpholin-4-ylpiperidin-1-yl)propan-2-ol], 6.47; with `CS(=O)(=O)N1CCc2c(c(-c3ccc(C(F)(F)F)c(SCCN4CCC(F)CC4)c3)nn2C[C@H](O)CN2CCN(c3cccc(O)c3)CC2)C1` [Example 793, 3-{4-[(2R)-3-{3-[3-{[2-(4-Fluoropiperidin-1-yl)ethyl]sulfanyl}-4-(trifluoromethyl)phenyl]-5-(methylsulfonyl)-4,5,6,7-tetrahydro-1H-pyrazolo[4,3-c]pyridin-1-yl}-2-hydroxypropyl]piperazin-1-yl}phenol], 7.46.
Regarding `CS(=O)(=O)N1CCc2c(c(-c3ccc(C(F)(F)F)c(SCC(=O)N4CCOCC4)c3)nn2CCCN2CCCCC2)C1` [Example 253, 5-(Methylsulfonyl)-3-{3-[(2-morpholin-4-yl-2-oxoethyl)sulfanyl]-4-(trifluoromethyl)phenyl}-1-(3-piperidin-1-ylpropyl)-4,5,6,7-tetrahydro-1H-pyrazolo[4,3-c]pyridine], the negative-log IC50 (pIC50) was 6.33.
The figure for `CS(=O)(=O)N1CCc2c(c(-c3ccc(C(F)(F)F)c(SCC(=O)N4CCCC4)c3)nn2CC(O)CN2CCC(C(=O)N3CCCC3)CC2)C1` (stereo not shown) [Example 257, 1-[5-(Methylsulfonyl)-3-{3-[(2-oxo-2-pyrrolidin-1-ylethyl)sulfanyl]-4-(trifluoromethyl)phenyl}-4,5,6,7-tetrahydro-1H-pyrazolo[4,3-c]pyridin-1-yl]-3-[4-(pyrrolidin-1-ylcarbonyl)piperidin-1-yl]propan-2-ol] is 7.52.
The figure for `CN1CCCN(CCSc2cc(-c3nn(CCCN4CCC(N5CCCC5=O)CC4)c4c3CN(S(C)(=O)=O)CC4)ccc2C(F)(F)F)CC1` [Example 45] is 6.28; for `CS(=O)(=O)N1CCc2c(c(-c3ccc(C(F)(F)F)c(SCCN4CCC(O)CC4)c3)nn2CC(O)CN2CCC(NC(=O)CO)CC2)C1` (stereo not shown) [Example 699, 2-Hydroxy-N-[1-(2-hydroxy-3-{3-[3-{[2-(4-hydroxypiperidin-1-yl)ethyl]sulfanyl}-4-(trifluoromethyl)phenyl]-5-(methylsulfonyl)-4,5,6,7-tetrahydro-1H-pyrazolo[4,3-c]pyridin-1-yl}propyl)piperidin-4-yl]acetamide] it is 6.89.
As for `CS(=O)(=O)NC1CCN(CC(O)Cn2nc(-c3ccc(C(F)(F)F)c(SCC(=O)N4CCOCC4)c3)c3c2CCN(S(C)(=O)=O)C3)CC1` (stereo not shown) [Example 783, N-(1-{2-Hydroxy-3-[5-(methylsulfonyl)-3-{3-[(2-morpholin-4-yl-2-oxoethyl)sulfanyl]-4-(trifluoromethyl)phenyl}-4,5,6,7-tetrahydro-1H-pyrazolo[4,3-c]pyridin-1-yl]propyl}piperidin-4-yl)methanesulfonamide], the negative logarithm of the IC50 (pIC50) is 7.15.
With `O=C(CSc1cc(-c2nn(CC(O)CN3CCC(N4CCCC4=O)CC3)c3c2CNCC3)ccc1C(F)(F)F)N1CCCC1` (stereo not shown) [Example 270, 1-{1-[2-Hydroxy-3-(3-{3-[(2-oxo-2-pyrrolidin-1-ylethyl)sulfanyl]-4-(trifluoromethyl)phenyl}-4,5,6,7-tetrahydro-1H-pyrazolo[4,3-c]pyridin-1-yl)propyl]piperidin-4-yl}pyrrolidin-2-one] the figure was 6.41; with `CS(=O)(=O)N1CCc2c(c(-c3ccc(C(F)(F)F)c(SCCN4CCOCC4)c3)nn2CC(O)CN2CCC(C(=O)N3CCOCC3)CC2)C1` (stereo not shown) [Example 817, 1-[5-(Methylsulfonyl)-3-{3-[(2-morpholin-4-ylethyl)sulfanyl]-4-(trifluoromethyl)phenyl}-4,5,6,7-tetrahydro-1H-pyrazolo[4,3-c]pyridin-1-yl]-3-[4-(morpholin-4-ylcarbonyl)piperidin-1-yl]propan-2-ol], 6.48; with `O=C(CO)N1CCc2c(c(-c3ccc(C(F)(F)F)c(SCCN4CCCCC4)c3)nn2CC(O)CN2CCC(N3CCCC3=O)CC2)C1` (stereo not shown) [Example 240, 1-(1-{2-Hydroxy-3-[5-(hydroxyacetyl)-3-{3-[(2-piperidin-1-ylethyl)sulfanyl]-4-(trifluoromethyl)phenyl}-4,5,6,7-tetrahydro-1H-pyrazolo[4,3-c]pyridin-1-yl]propyl}piperidin-4-yl)pyrrolidin-2-one], 7.40.
With `CS(=O)(=O)N1CCc2c(c(-c3ccc(Cl)c(SCCc4cnccn4)c3)nn2CCCN2CCOCC2)C1` [Example 138, 3-[4-Chloro-3-(2-pyrazin-2-yl-ethylsulfanyl)-phenyl]-5-methanesulfonyl-1-(3-morpholin-4-yl-propyl)-4,5,6,7-tetrahydro-1H-pyrazolo[4,3-c]pyridine] the figure was 5.51; with `CS(=O)(=O)N1CCc2c(c(-c3ccc(C(F)(F)F)c(SCCN4CCCC(F)C4)c3)nn2C[C@@H](O)CN2CCC(C(N)=O)CC2)C1` (stereo partly drawn) [Example 608, 1-[(2S)-3-{3-[3-{[2-(3-Fluoropiperidin-1-yl)ethyl]sulfanyl}-4-(trifluoromethyl)phenyl]-5-(methylsulfonyl)-4,5,6,7-tetrahydro-1H-pyrazolo[4,3-c]pyridin-1-yl}-2-hydroxypropyl]piperidine-4-carboxamide], 6.74.
Turning to `CS(=O)(=O)N1CCc2c(c(-c3ccc(C(F)(F)F)c(SCCN4CCCC(F)C4)c3)nn2C[C@@H](O)CN2CC=CCC2)C1` (stereo partly drawn) [Example 387, (2S)-1-(3,6-Dihydropyridin-1(2H)-yl)-3-{3-[3-{[2-(3-fluoropiperidin-1-yl)ethyl]sulfanyl}-4-(trifluoromethyl)phenyl]-5-(methylsulfonyl)-4,5,6,7-tetrahydro-1H-pyrazolo[4,3-c]pyridin-1-yl}propan-2-ol], the negative logarithm of the IC50 (pIC50) is 6.43.
Regarding `CC(C)N1CCN(CC(O)Cn2nc(-c3ccc(C(F)(F)F)c(SCCN4CCOCC4)c3)c3c2CCN(S(C)(=O)=O)C3)CC1` (stereo not shown) [Example 554, 1-[4-(1-Methylethyl)piperazin-1-yl]-3-[5-(methylsulfonyl)-3-{3-[(2-morpholin-4-ylethyl)sulfanyl]-4-(trifluoromethyl)phenyl}-4,5,6,7-tetrahydro-1H-pyrazolo[4,3-c]pyridin-1-yl]propan-2-ol], the pIC50 is 5.67.
Turning to `CS(=O)(=O)N1CCc2c(c(-c3ccc(C(F)(F)F)c(SCC(=O)N4CCCCC4)c3)nn2CC(O)CN2CCC(C(=O)N3CCCC3)CC2)C1` (stereo not shown) [Example 259, 1-[5-(Methylsulfonyl)-3-{3-[(2-oxo-2-piperidin-1-ylethyl)sulfanyl]-4-(trifluoromethyl)phenyl}-4,5,6,7-tetrahydro-1H-pyrazolo[4,3-c]pyridin-1-yl]-3-[4-(pyrrolidin-1-ylcarbonyl)piperidin-1-yl]propan-2-ol], the pIC50 was 7.22.
The figure for `CS(=O)(=O)N1CCc2c(c(-c3ccc(C(F)(F)F)c(SCCN4CCCCC4)c3)nn2CC(O)CN2CCOCC2)C1` (stereo not shown) [Example 160, 1-[5-(Methylsulfonyl)-3-{3-[(2-piperidin-1-ylethyl)sulfanyl]-4-(trifluoromethyl)phenyl}-4,5,6,7-tetrahydro-1H-pyrazolo[4,3-c]pyridin-1-yl]-3-morpholin-4-ylpropan-2-ol] is 6.36.
With `CS(=O)(=O)N1CCc2c(c(-c3ccc(C(F)(F)F)c(SCCN4CCC(NC(=O)CO)CC4)c3)nn2C[C@@H](O)CN2CCOCC2)C1` [Example 654, 2-Hydroxy-N-[1-(2-{[5-{1-[(2S)-2-hydroxy-3-morpholin-4-ylpropyl]-5-(methylsulfonyl)-4,5,6,7-tetrahydro-1H-pyrazolo[4,3-c]pyridin-3-yl}-2-(trifluoromethyl)phenyl]sulfanyl}ethyl)piperidin-4-yl]acetamide], the negative logarithm of the IC50 (pIC50) is 5.50.
Turning to `CS(=O)(=O)N1CCc2c(c(-c3ccc(C(F)(F)F)c(SCCN4CCCC(F)C4)c3)nn2C[C@@H](O)CN2CCSCC2)C1` (stereo partly drawn) [Example 502, (2S)-1-{3-[3-{[2-(3-Fluoropiperidin-1-yl)ethyl]sulfanyl}-4-(trifluoromethyl)phenyl]-5-(methylsulfonyl)-4,5,6,7-tetrahydro-1H-pyrazolo[4,3-c]pyridin-1-yl}-3-thiomorpholin-4-ylpropan-2-ol], the pIC50 was 6.43.
